In patent US12383566B2, “Inhibition of SLC transporter activity or expression to attenuate anthracycline-induced cardiotoxicity” (Northwestern University, priority 2021, dated 2025):

System: Mouse model of doxorubicin-induced cardiomyopathy
Experiment: Mouse model of doxorubicin-induced cardiomyopathy, echocardiographic evaluation
Type: in vivo, C57BL/6J mice
Settings: Base line; Mean
Excerpt: Procedures followed were in accordance with Stanford University's institutional guidelines. […] For the control group, we treated mice with corn oil in the same schedule as desipramine administration. We recorded an echocardiogram once a week (day 0, day 7, day 14, and day 21) and terminated the experiment at day 21.
For the control group, we treated mice with corn oil in the same schedule as desipramine administration. We recorded an echocardiogram once a week (day 0, day 7, day 14, and day 21) and terminated the experiment at day 21.
Echocardiographic evaluation. Mice were studied at baseline and weekly during the protocol under light anesthesia with isoflurane (induction 3%, maintenance 1.5%). 2D images in the parasternal short axis were obtained with a GE Vivid 7 ultrasound system (GE Healthcare) equipped with a 13 MHz transducer. Left ventricular end-systolic (LVESD) and end-diastolic (LVEDD) dimensions were measured and left ventricular fractional shortening (FS) was calculated.

COc1cccc2c1C(=O)c1c(O)c3c(c(O)c1C2=O)C[C@@](O)(C(=O)CO)C[C@@H]3O[C@H]1C[C@H](N)[C@H](O)[C@H](C)O1 [DOX, doxorubicin]
IVSs (LV interventricular septum thickness at systole): 1.04 mm
